Data published in publication PMC2920814 (PLoS ONE, 2010).

Tested on: transient focal cerebral ischemia (tMCAo) in rats
Assay: Transient middle cerebral artery occlusion (tMCAo) 90 min, Neurokin study, infarct volumes by TTC staining
Details: 90 min tMCAo; p = 0.31, Fisher exact test

## CC[C@@H](CO)Nc1nc(NCc2ccccc2)c2ncn(C(C)C)c2n1 [(S)-roscovitine]
  animal mortality versus vehicle group: No significant difference
